From patent US20040110821A1, “GAL3 receptor antagonists for the treatment of affective disorders” (priority 2002, published 2004) come the findings set out here.

The chains behind the UniProt entries cited, without tags or fusion partners. Residues count along the entry.
UniProt Q63380, 1-617: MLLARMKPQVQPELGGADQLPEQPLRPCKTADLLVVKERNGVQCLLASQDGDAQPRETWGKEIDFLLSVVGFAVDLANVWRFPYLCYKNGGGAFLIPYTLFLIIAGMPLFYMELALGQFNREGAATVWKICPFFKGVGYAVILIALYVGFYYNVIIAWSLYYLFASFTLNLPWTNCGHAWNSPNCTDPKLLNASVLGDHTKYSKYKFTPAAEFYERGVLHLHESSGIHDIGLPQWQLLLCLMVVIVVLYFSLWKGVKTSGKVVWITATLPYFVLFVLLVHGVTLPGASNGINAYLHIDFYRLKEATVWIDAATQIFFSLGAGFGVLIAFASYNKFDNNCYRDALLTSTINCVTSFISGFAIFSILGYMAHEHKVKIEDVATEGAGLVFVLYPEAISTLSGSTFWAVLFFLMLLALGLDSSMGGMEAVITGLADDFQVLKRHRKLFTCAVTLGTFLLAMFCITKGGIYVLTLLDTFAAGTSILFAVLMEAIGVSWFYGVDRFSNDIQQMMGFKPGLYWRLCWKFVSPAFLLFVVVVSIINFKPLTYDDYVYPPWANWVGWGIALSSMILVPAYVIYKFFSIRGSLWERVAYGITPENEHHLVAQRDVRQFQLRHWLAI
UniProt O60755, whole entry: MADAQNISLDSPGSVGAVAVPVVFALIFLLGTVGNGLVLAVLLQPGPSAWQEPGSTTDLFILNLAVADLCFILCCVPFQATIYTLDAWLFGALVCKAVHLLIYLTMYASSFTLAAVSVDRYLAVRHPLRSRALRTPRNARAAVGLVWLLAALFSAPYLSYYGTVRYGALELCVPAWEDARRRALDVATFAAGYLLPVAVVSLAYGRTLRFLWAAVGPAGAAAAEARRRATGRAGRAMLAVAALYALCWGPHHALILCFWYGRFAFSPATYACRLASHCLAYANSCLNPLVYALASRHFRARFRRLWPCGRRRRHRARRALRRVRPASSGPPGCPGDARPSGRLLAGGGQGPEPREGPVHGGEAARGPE

One may read the Ki as the equilibrium dissociation constant of an inhibitor or competing ligand from its target.

For one assay, the target named is NE transporter (Rattus norvegicus, UniProt Q63380). The assay can be described thus: Binding at native NE transporter. To be noted: read-out: rNE Uptk Ki. As to the method:
The methods to determine binding affinity at native transporters are described in the following publications: 5HT transporter and NE transporter (Owens et al., 1997), and DA transporter (Javitch et al, 1984).
Binding data were analyzed using nonlinear regression and statistical techniques available in the GraphPAD Prism package (San Diego, Calif.). Enzymatic assay data were derived from a standard curve of reference compound data.

The next assay has as its target human GAL3 receptor (Homo sapiens, UniProt O60755). As to the kind of experiment: Radioligand binding at cloned human GAL3 receptor. To be noted: Ki at hGAL3 divided by Ki at human GAL3. As to the method:
The present invention provides for a method of determining the binding affinity of a GAL3 antagonist, wherein the GAL3 antagonist is dissolved in a “suitable solvent”. A “suitable solvent” means one which permits the measurement of binding affinity of the GAL3 antagonist to the human GAL3 receptor at concentrations less than 1 μM, preferably less than 100 nM. Examples of solvents include, but are not limited to, DMSO, ethanol, N,N-dimethylacetamide, or water. For indolones, the preferred solvent is 3% DMSO (final concentration in the assay). For pyrimidines, the preferred solvent is 1% ethanol/0.09% polypuronic acid F-127 (final concentration in the assay). […]
The binding properties of the pyrimidines of the present invention were evaluated at the cloned human galanin receptors, GAL1, GAL2, and GAL3, using protocols described herein.
The binding properties of the indolones of the present invention were evaluated at the cloned human galanin receptors, GAL1, GAL2, and GAL3, using protocols described herein. […]
Membranes were harvested from stably transfected LM(tk-) cells. […] Protein concentration was measured by the Bradford method (Bradford, 1976) using Bio-Rad Reagent, with bovine serum albumin as a standard. […]
Binding data were analyzed using nonlinear regression and statistical techniques available in the GraphPAD Prism package (San Diego, Calif.). […]

The subject of a further assay is Male Sprague-Dawley rats. As to the kind of experiment: Rat Forced Swim Test (FST). The conditions noted are these: for Climbing / Diving / Immobility / Swimming: single administration 1 hr before 5 min test.

For the molecule `COC[C@@H]1[C@@H](c2ccccc2)OCCN1c1nc(Nc2ccc(C)cc2)cc(N2CCCCC2)n1`, the Ki at NE transporter is 37.6 µM. Moreover, the selectivity ratio hGAL3 at human GAL3 receptor (Table 8) and at human GAL3 receptor (Table 10) was 1 each time. The Climbing entry with Male Sprague-Dawley rats (3 mg/kg p.o.), with Male Sprague-Dawley rats (10 mg/kg p.o.) and in the assay on Male Sprague-Dawley rats (30 mg/kg p.o.) was “no significant difference in the number of climbing counts” throughout. Besides, the Diving result with Male Sprague-Dawley rats (3 mg/kg p.o.) is recorded as “not significantly altered”; in the assay on Male Sprague-Dawley rats (10 mg/kg p.o.), “not significantly altered”; with Male Sprague-Dawley rats (10 mg/kg p.o., listed as EX49), 0.0 ± 0.0 counts; with Male Sprague-Dawley rats (30 mg/kg p.o.), “not significantly altered”. Further, the Immobility result in the assay with Male Sprague-Dawley rats (3 mg/kg p.o.) is “did not significantly alter immobility”; with Male Sprague-Dawley rats (10 mg/kg p.o.), “did not significantly alter immobility”; with Male Sprague-Dawley rats (30 mg/kg p.o.) it was “significant decrease in immobility”. Moreover, the Swimming result in the assay with Male Sprague-Dawley rats (3 mg/kg p.o.) is listed as “did not significantly alter swimming behavior”; in the assay on Male Sprague-Dawley rats (10 mg/kg p.o.), “did not significantly alter swimming behavior”; in the assay with Male Sprague-Dawley rats (30 mg/kg p.o.) it was “significantly greater increase in swimming behavior”. The “overall profile in the Forced Swim Test (conclusion in words)” value in the assay on Male Sprague-Dawley rats (rat, in vivo) was “may have antidepressant-like properties in this model”.
